Test results as given in article PMC2645950 (Journal of medicinal chemistry, 2008).

Target: T1, human alkyltransferase (wild type) (Homo sapiens, UniProt P16455)
T1 sequence (P16455 1-207): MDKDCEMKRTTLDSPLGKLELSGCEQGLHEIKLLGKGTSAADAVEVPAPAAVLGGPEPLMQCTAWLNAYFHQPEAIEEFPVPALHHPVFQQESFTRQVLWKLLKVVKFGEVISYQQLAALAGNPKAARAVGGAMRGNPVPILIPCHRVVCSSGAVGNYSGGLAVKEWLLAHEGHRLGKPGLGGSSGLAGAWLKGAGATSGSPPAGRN
Test: Inactivation of purified recombinant human alkyltransferase in vitro
Format: biochemical
Settings: assayed in the presence of DNA

Compound: Nc1nc(OCc2ccccc2)c2nc[nH]c2n1 [BG, O^6-Benzylguanine]
- ED50: 100 nM
